Source: US6037463A, “Enzymatic RNA molecules that cleave mutant N-RAS” (priority 1996, dated 2000)

Experiments:
[1] = test system: synthetic oligoribonucleotide substrate of 15 nucleotides, mutant N-ras mRNA (codon 13); assay: Kinetics with synthetic substrates (multiple turnover), ribozymes against mutant N-ras; format: biochemical; settings: Table IB, modifications of MRE763C
Protocol: In one investigation, short synthetic oligoribonucleotides of 15 nucleotides chain length served as substrates. Cleavage kinetics of all ribozymes were carried out under Michaelis-Menten conditions. […] Ribozymes RE990 or RE1035 against the wild type mRNA as well as their substrate complexes on the other hand reveal Tm values of approximately 52° C.
Kinetic constants Km and kcat were determined from Eadie-Hofstee plots carried out with 5'-^32 P-labeled substrate. The RNA substrate was labeled by reaction with T4 polynucleotide kinase and [γ-^32P]-ATP. 5'-end labeled substrate was purified from [γ-^32 P]-ATP with CENTRICON-3 tubes. Ribozyme and substrate were heated separately for 1 min at 75° C. in 50 mM Tris-Cl (pH 7.5). After cooling to 37° C. for 5 min, 100 mM MgCl2 were added to a final concentration of 10 mM, and the solution was incubated for an additional 5 min at 37° C. Multiple turnover reactions were carried out in a volume of 100 μl with concentrations of substrate between 20-500 nM and ribozyme concentrations from 2 to 5 nM in 50 mM Tris-Cl (pH 7.5) and 10 mM MgCl2 at 37° C. Reactions were initiated by addition of ribozyme. The reaction was stopped by mixing the ribozymes with an equal volume of stop solution (8 M urea, 25 mM EDTA). The cleavage reactions were analyzed on 20% denaturing polyacrylamide gels (8 M urea) and scanned on a Molecular Dynamic Phosphorimaging system.

[2] = test system: in vitro transcribed mutant N-ras mRNA (codon 13); assay: Kinetics with in vitro transcribed RNA (single-turnover), mutant; format: biochemical; settings: Table IIC, modifications of MRE763C
Text: In a further investigation, RNA containing the mutant or wild type N-ras sequence from transcription initiation site to termination site was synthesized by in vitro transcription. In order to achieve efficient mRNA cleavage, the target sequence of the substrate (NUX-triplet, N=A,G,C,U; X=C,A,U) is not allowed to be double-stranded or part of a stable hairpin. The in vitro transcribed RNA served as substrate for five ribozymes mentioned above. The catalytic efficiency was examined under "single-turnover" conditions to detect the splice products.
For in vitro transcription, pMS5-NRAS, pMS5A-NRAS and pMS5B-NRAS were linearized by EcoRI digestion, phenol-extracted and ethanol-precipitated. Transcription was carried out in a 100 μl mixture containing 50 ng/μl linearized plasmid DNA, 10 mM DTT, 40 mM Tris-Cl (pH 7.5), 50 mM NaCl, 8 mM MgCl2, 2 mM spermidine, 500 μM rNTP's, 0.8 U/μl RNAse-lnhibitor, 2 μCi/μl [α-^32 P]-ATP and 2.5 U/μl T7 RNA Polymerase. […]
The cleavage efficiency under "single-turnover" conditions was determined in a volume of 10 μl using 20-1200 nM ribozyme, 50 mM Tris-Cl (pH 7.5) and 10 mM MgCl2. […] The reaction was analyzed on 6% denaturing polyacrylamide gels and scanned on a Molecular Dynamics Phosphor Imager. The single turnover kcat /Km values were determined as described by Heidenreich et al., J. Biol. Chem. 267:1904 (1992).

Which Km [1] does the source give for “5'-CCAACACCUGAUGAGCGUUAGCGAAACCUGCU-3' (chemistry not given here)” here?
The Km was 0.072 µM.

And the kcat [1]?
The kcat was 0.06267 s⁻¹.

And the Km [2]?
Its Km is 0.071 µM.

And the kreact [2]?
The kreact was 266 10^-6 s^-1.
